This is a selection; strong and weak results do not stand in their true shares. Active and inactive are the calls of the source. No stated cut-off is given here; in the data, active means inhibition above about 35%; inactive means the rest.

In general, inhibition refers to the change of the read-out against control, counted positive when it falls.

This assay in a line: lowers stimulated NF-kB luciferase signal in 697 B cells – cell-based, luminescence, uHTS, B-cell NF-kB inhibitor project, primary screen (AID 435022). To be noted: 697 B-cell NF-kB luciferase reporter, PMA/ionomycin, 16 h; at 4 µM; active compounds read high. For orientation: Reporter assays use an easily measured gene product as a stand-in for the process of interest.
With `CC(C)(C)OC(=O)N1CCC(N(C(=O)c2ccccc2)c2ccc(F)cc2)CC1`, the inhibition was inactive: -4.23%. Under `COc1ccc(C(=O)NCC2(N3CCCCC3)CCCCC2)c(OC)c1OC` stands inactive: -15.9%; under `COc1ccc(C(=O)NCC2(N3CCCCC3)CCCCC2)cc1`, inactive: 5.93%.

Regarding `O=C(NCC1(N2CCCCC2)CCCCC1)c1cccs1`, the inhibition was inactive: 1.83%. Take `O=C(NCC1(N2CCCCC2)CCCCC1)c1ccc(=O)[nH]c1`: the inhibition was inactive: 11.4%. Under `CSc1ccccc1C(=O)NCC1(N2CCCCC2)CCCCC1` stands inactive: -30.6%. For `Cc1cc(C)cc(N(C(=O)c2ccccc2)C2CCN(C(=O)OC(C)(C)C)CC2)c1`, the inhibition is inactive: -4.84%. Under `O=C(NCC1(N2CCCCC2)CCCCC1)c1ccc(Cl)nc1` stands inactive: 12.4%; under `O=C(NCC1(N2CCOCC2)CCCCC1)c1cc2ccccc2o1`, inactive: 5.41%; under `COc1ccc(Cl)cc1C(=O)NCC1(N2CCOCC2)CCCCC1`, inactive: 5.48%.

As for `O=C(NCC1(N2CCCCC2)CCCCC1)c1ccc(Cl)s1`, the inhibition was inactive: 19.3%.

As to `N#CC1(Nc2ccccc2)CCN(Cc2ccccc2)CC1`, the inhibition is inactive: 10.9%. Under `O=C(OC1CN2CCC1CC2)C1c2ccccc2Oc2ccccc21` (configuration not stated) stands inactive: -7.25%. The value for `CCOC(=O)N1CCC(Nc2ccc(OC)cc2)CC1` was inactive: -13.5%; that for `CCOc1ccc(C)cc1CN(CCCl)CCCl` was inactive: -18.7%. As to `COc1ccc(NC2CCN(CCc3ccccc3)CC2)c(OC)c1`, the inhibition is inactive: 10.4%.

With `CCOC(=O)N1CCC(Nc2ccc(F)cc2)CC1`, the inhibition was inactive: -8.91%. The value for `CCCCOc1ccc(C(=O)NCC2(N3CCOCC3)CCCCC2)cc1` was inactive: -58.6%; that for `O=C(NCC1(N2CCCCC2)CCCCC1)c1ccc(F)cc1` was inactive: 7.77%; that for `Cc1ccc(OCC(C)C)c(CN(CCCl)CCCl)c1` was inactive: -3.68%. Under `CCOC(=O)N1CCC(Nc2cccc(C)c2)CC1` stands inactive: -6.22%; under `O=C(NCC1(N2CCCCC2)CCCCC1)c1ccc(OC(F)F)cc1`, inactive: -8.17%; under `N#CC1(Nc2ccccc2)CCN(CCc2ccccc2)CC1`, inactive: 18.7%. In the case of `CCN1CCC(Nc2ccc(Cl)cc2)CC1`, the inhibition was inactive: -4.79%. Under `O=C(NCC1(N2CCCCC2)CCCCC1)c1cccc([N+](=O)[O-])c1` stands inactive: 4.77%; under `CSc1ccc(C(=O)NCC2(N3CCOCC3)CCCCC2)cc1`, inactive: -17.9%; under `O=C(NCC1(N2CCCCC2)CCCCC1)c1cccc(C(F)(F)F)c1`, inactive: -0.643%.

Take `COc1cc(C(=O)NCC2(N3CCCCC3)CCCCC2)ccc1OC(F)F`: the inhibition is inactive: 12.5%.

Regarding `O=C(NCC1(N2CCOCC2)CCCCC1)c1cc(=O)[nH]c2ccccc12`, the inhibition was inactive: -3.53%.

With `CN1CCN(CCOC(=O)C(O)(c2ccccc2)c2ccccc2)CC1`, the inhibition is inactive: -4.15%. With `CC(C)c1ccc(C(=O)NCC2(N3CCOCC3)CCCCC2)cc1`, the inhibition was inactive: -38.3%. Under `COc1ccc(NC2CCN(C(=O)OC(C)(C)C)CC2)cc1` stands inactive: -6.68%; under `CC(C)c1ccc(NC2CCN(C(=O)OC(C)(C)C)CC2)cc1`, inactive: -59.6%.

Regarding `CN(C)c1cccc(C(=O)NCC2(N3CCCCC3)CCCCC2)c1`, the inhibition is inactive: -1.11%. Under `COc1ccc(CN(CCCl)CCCl)cc1Cl` stands inactive: 13.1%; under `O=C(NCC1(N2CCOCC2)CCCCC1)c1cc(F)c(F)cc1Cl`, inactive: -0.658%. In the case of `COc1cc(OC)c(C(=O)NCC2(N(C)C)CCCCC2)cc1OC`, the inhibition is inactive: 4%.

For the compound `CN1CCC(Nc2cccc(F)c2)CC1`, the inhibition was inactive: 14%. The value for `O=C(NCC1(N2CCCCC2)CCCCC1)c1cncc(Br)c1` was inactive: 4.24%. Under `COc1cc(C(=O)NCC2(N3CCOCC3)CCCCC2)cc(OC)c1C` stands inactive: -12.7%. The value for `O=C(NCC1(N2CCOCC2)CCCCC1)c1cc(Br)ccc1Cl` was inactive: -5.08%; that for `COc1ccc(C(=O)NCC2(N3CCOCC3)CCCCC2)cc1OC` was inactive: 12.2%; that for `CCOC(=O)N1CCC(Nc2ccc(C)cc2)CC1` was inactive: -6.91%. Consider `N/C(=N\O)c1c(N)no[n+]1[O-]`, for which the inhibition is inactive: -11.1%. The value for `CCc1cc(C(=O)NCC2(N3CCCCC3)CCCCC2)sc1C` was inactive: 17.4%; that for `O=C(OC1CN2CCC1CC2)C1c2ccccc2C=Cc2ccccc21` (configuration not stated) was inactive: 7.16%; that for `N#Cc1ccc(C(=O)NCC2(N3CCCCC3)CCCCC2)cc1` was inactive: 13.7%.

With `CC(C)(C)OC(=O)N1CCC(N(C(=O)c2ccccc2)c2ccc(Cl)cc2)CC1`, the inhibition is inactive: 1.94%. As to `CN(C)C1(CNC(=O)c2cccc(C#N)c2)CCCCC1`, the inhibition was inactive: -8.5%.

Take `CCCN1CCC(Nc2cc(OC)cc(OC)c2)CC1`: the inhibition is inactive: -6.82%. The value for `c1ccc(CN2CCC(Nc3ccccc3)CC2)cc1` was inactive: 5.76%; that for `COc1cc(OC)cc(C(=O)NCC2(N3CCCCC3)CCCCC2)c1` was inactive: 13.3%. Consider `Fc1ccccc1NC1CCN(Cc2ccccc2)CC1`, for which the inhibition is inactive: 4.14%. Under `Cc1ccc(C(=O)NCC2(N3CCCCC3)CCCCC2)o1` stands inactive: -6.12%. Under `CCN1CCC(Nc2cccc(F)c2)CC1` stands inactive: 26.3%. The value for `CN(C)c1ccc(C(=O)NCC2(N3CCCCC3)CCCCC2)cc1` was inactive: 13.4%. As to `O=C(NCC1(N2CCCCC2)CCCCC1)c1ccco1`, the inhibition is inactive: 12.8%. The value for `CN1CCC(Nc2ccc(F)c(Cl)c2)CC1` was inactive: -3.18%; that for `CCOc1ncccc1C(=O)NCC1(N2CCOCC2)CCCCC1` was inactive: 2.46%; that for `O=C(O)C1(Nc2ccccc2)CCN(Cc2ccccc2)CC1` was inactive: -12.8%. The value for `CC(C)(C)OC(=O)N1CCC(Nc2ccccc2)CC1` was inactive: 5.1%; that for `CCCOc1ccc(C(=O)NCC2(N(C)C)CCCCC2)cc1` was inactive: 18.2%. The value for `COc1cc(OC)cc(C(=O)NCC2(N3CCOCC3)CCCCC2)c1` was inactive: -8.64%; that for `COc1cccc(C(=O)N(c2cc(C)cc(C)c2)C2CCN(C(=O)OC(C)(C)C)CC2)c1` was inactive: -25.3%.

For the compound `CCC(CO)(C(=O)OC1CN2CCC1CC2)c1ccccc1` (configuration not stated), the inhibition was inactive: 22.8%. As for `CN1CCC(Nc2ccc(Cl)cc2)CC1`, the inhibition was inactive: 12.9%. With `CCCOc1ccc(C)cc1CN(CCCl)CCCl`, the inhibition is inactive: -9.77%.

Values taken from PubChem BioAssay AID435022 (Sanford-Burnham Center for Chemical Genomics, 2010).
